Cyclic peptide permeability, from CycPeptMPDB

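Lipid, pH, incubation time, direction and concentration are not recorded in the data file. The list need not hold all peptides of the study. Peptides that the database sets to -10, its floor, are left out.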

PAMPA measures passive passage through an artificial lipid membrane. P is given in units of 10^-6 cm/s (from log10 values with two decimals); larger means faster passage.

compound	PAMPA (10^-6 cm/s)
CC(=O)N[C@@H]1C(=O)N2CCC[C@H]2C(=O)N(C)[C@H](CC(C)C)C(=O)N[C@@H](CC(C)C)C(=O)N(C)[C@H](CC(C)C)C(=O)N(C)[C@H](CC(C)C)C(=O)N[C@@H](C)C(=O)N[C@@H](CC(C)C)C(=O)N2CCC[C@@H]2C(=O)O[C@@H]1C	2.8
CC(=O)N1CCC[C@H]1C(=O)N[C@@H]1C(=O)N(C)[C@H](CC(C)C)C(=O)N[C@H](CC(C)C)C(=O)N(C)[C@H](CC(C)C)C(=O)N(C)[C@@H](CC(C)C)C(=O)N[C@H](C)C(=O)N[C@@H](CC(C)C)C(=O)N2CCC[C@@H]2C(=O)O[C@@H]1C	6.5
CC(=O)N1CCC[C@H]1C(=O)N(C)[C@H](CC(C)C)C(=O)N[C@@H]1C(=O)N[C@H](Cc2ccc(F)cc2)C(=O)N[C@@H](CC(C)C)C(=O)N[C@H](Cc2ccccc2)C(=O)N(C)[C@H](C)C(=O)N[C@@H](CC(C)C)C(=O)N2CCC[C@H]2C(=O)O[C@@H]1C	2.6
CC(=O)N[C@@H]1C(=O)N2CCC[C@H]2C(=O)N(C)[C@H](CC(C)C)C(=O)N(C)[C@@H](CC(C)C)C(=O)N[C@@H](CC(C)C)C(=O)N[C@@H](CC(C)C)C(=O)N[C@@H](C)C(=O)N[C@@H](CC(C)C)C(=O)N2CCC[C@@H]2C(=O)O[C@@H]1C	0.44
CC(=O)N1CCC[C@H]1C(=O)N(C)[C@H](CC(C)C)C(=O)N[C@@H]1C(=O)N[C@H](CC2CCCCC2)C(=O)N[C@@H](CCc2ccccc2)C(=O)N[C@H](Cc2ccc(F)cc2)C(=O)N(C)[C@H](C)C(=O)N[C@@H](CC(C)C)C(=O)N2CCC[C@H]2C(=O)O[C@@H]1C	0.71
CC(=O)N[C@@H]1C(=O)N2CCC[C@H]2C(=O)N(C)[C@H](CC(C)C)C(=O)N(C)[C@@H](CC(C)C)C(=O)N[C@H](CC(C)C)C(=O)N[C@@H](CC(C)C)C(=O)N[C@@H](C)C(=O)N[C@@H](CC(C)C)C(=O)N2CCC[C@@H]2C(=O)O[C@@H]1C	0.45
CC(=O)N1CCC[C@H]1C(=O)N(C)[C@H](CC(C)C)C(=O)N[C@@H]1C(=O)N[C@H](Cc2ccc(F)cc2)C(=O)N[C@@H](CC(C)C)C(=O)N[C@H](Cc2ccc(F)c(F)c2)C(=O)N(C)[C@H](C)C(=O)N[C@@H](CC(C)C)C(=O)N2CCC[C@H]2C(=O)O[C@@H]1C	2.6
CC(=O)N1CCC[C@H]1C(=O)N(C)[C@H](CC(C)C)C(=O)N[C@@H]1C(=O)N[C@H](Cc2ccccc2)C(=O)N[C@@H](CC(C)C)C(=O)N[C@H](CC2CCCCC2)C(=O)N(C)[C@H](C)C(=O)N[C@@H](CC(C)C)C(=O)N2CCC[C@H]2C(=O)O[C@@H]1C	0.93
CC[C@H]1NC(=O)[C@@H](NC(=O)[C@@H](CC(C)C)N(C)C(=O)[C@@H]2CCCN2C(C)=O)[C@@H](C)OC(=O)[C@@H]2CCCN2C(=O)[C@H](CC(C)C)NC(=O)[C@@H](C)N(C)C(=O)[C@@H](Cc2ccc(F)cc2)NC(=O)[C@H](Cc2ccc(OC)cc2)NC1=O	1.9
CCC[C@H]1NC(=O)[C@@H](NC(=O)[C@@H](CC(C)C)N(C)C(=O)[C@@H]2CCCN2C(C)=O)[C@@H](C)OC(=O)[C@@H]2CCCN2C(=O)[C@H](CC(C)C)NC(=O)[C@@H](C)N(C)C(=O)[C@@H](Cc2cccc3ccccc23)NC(=O)[C@H](CCc2ccccc2)NC1=O	0.69
CC(=O)N1CCC[C@H]1C(=O)N(C)[C@H](CC(C)C)C(=O)N[C@@H]1C(=O)N[C@H](CC(C)C)C(=O)N[C@@H](Cc2ccccc2)C(=O)N[C@H](Cc2ccc(F)cc2)C(=O)N(C)[C@H](C)C(=O)N[C@@H](CC(C)C)C(=O)N2CCC[C@H]2C(=O)O[C@@H]1C	2.2
CC[C@H]1NC(=O)[C@@H](NC(=O)[C@@H](CC(C)C)N(C)C(=O)[C@@H]2CCCN2C(C)=O)[C@@H](C)OC(=O)[C@@H]2CCCN2C(=O)[C@H](CC(C)C)NC(=O)[C@@H](C)N(C)C(=O)[C@@H](CC)NC(=O)[C@H](Cc2ccc(F)cc2)NC1=O	0.28
CC(=O)N1CCC[C@H]1C(=O)N(C)[C@H](CC(C)C)C(=O)N[C@@H]1C(=O)N[C@H](CC(C)C)C(=O)N[C@@H](CCc2ccccc2)C(=O)N[C@H](Cc2ccc(F)cc2)C(=O)N(C)[C@H](C)C(=O)N[C@@H](CC(C)C)C(=O)N2CCC[C@H]2C(=O)O[C@@H]1C	5

Extract of 2 entries:

{"smiles": "CC(=O)N1CCC[C@H]1C(=O)N(C)[C@H](CC(C)C)C(=O)N[C@@H]1C(=O)N[C@H](CC2CCCCC2)C(=O)N[C@@H](CCc2ccccc2)C(=O)N[C@H](Cc2ccc(F)cc2)C(=O)N(C)[C@H](C)C(=O)N[C@@H](CC(C)C)C(=O)N2CCC[C@H]2C(=O)O[C@@H]1C", "PAMPA (10^-6 cm/s)": "0.71"}
{"smiles": "CC(=O)N1CCC[C@H]1C(=O)N[C@@H]1C(=O)N(C)[C@H](CC(C)C)C(=O)N[C@H](CC(C)C)C(=O)N(C)[C@H](CC(C)C)C(=O)N(C)[C@@H](CC(C)C)C(=O)N[C@H](C)C(=O)N[C@@H](CC(C)C)C(=O)N2CCC[C@@H]2C(=O)O[C@@H]1C", "PAMPA (10^-6 cm/s)": "6.5"}

Values of Kelly et al. 2021, doi:10.1021/jacs.0c06115, as listed in CycPeptMPDB.